Results from patent US11242321B2, “Salt forms of organic compound” (KAINOS MEDICINE INC., priority 2018, dated 2022).

Tests used:
[1] = Aqueous solubility assessment of salt screen solids (visual); settings: Ca. 5 mg in up to 4000 μL water (1.25 mg/ml), shaken overnight at 50° C.
Experimental: Aqueous solubility assessment was performed using Ca. […] These samples were added to aliquots of deionized water up to a maximum of 4000 μL with the samples being shaken between additions to encourage dissolution prior to a visual inspection.

pH of saturated solution = assay type: physicochemical; settings: saturated solution in deionized water, room temperature
Experimental: A saturated solution of each of the salts was prepared in 5 mL of deionized water at room temperature prior to analysis.

## salt of 4-(2-((4-bromophenyl)thio)acetamido)-1-phenethyl-1H-pyrazole-3-carboxylic acid and choline
[1]; salt prepared from MIBK
  Solubility assessment (dissolution in deionized water), salt from MIBK: No dissolution

## salt of 4-(2-((4-bromophenyl)thio)acetamido)-1-phenethyl-1H-pyrazole-3-carboxylic acid and L-lysine
[1]; salt prepared from DIPE
  Solubility assessment (dissolution in deionized water), salt from DIPE: Partial

## salt of 4-(2-((4-bromophenyl)thio)acetamido)-1-phenethyl-1H-pyrazole-3-carboxylic acid and diethylamine [diethylamine salt]
pH of saturated solution
  pH of rm temp sat'd sol'n: 8.08
